{
  "source": "patent US20230000876A1",
  "about": "“TREATING CANCERS WITH A CYCLIN-DEPENDENT KINASE INHIBITOR” (Nuvation Bio Inc., priority 2021, published 2023)",
  "tested_on": "breast cancer PDX model harboring ESR1^Y537S mutation",
  "experiment": "Breast cancer PDX model harboring ESR1 Y537S mutation",
  "data": [
    {"smiles": "CC(C)N1CCOc2c(F)cc(-c3nc(Nc4ccc(C5CCN(C)CC5)cn4)ncc3F)cc21", "note": "[Compound (I), 5-fluoro-4-(8-fluoro-4-isopropyl-3,4-dihydro-2H-benzo[b][1,4]oxazin-6-yl)-N-(5-(1-methylpiperidin-4-yl)pyridin-2-yl)pyrimidin-2-amine]", "values": [
      {"measurement": "Tumor Volume (Mean ± SEM)", "setting": "Group 5: Compound (I) 30 mg/kg PO qd, Day 0", "value": "124 ± 3", "unit": "mm^3"},
      {"measurement": "Tumor Volume (Mean ± SEM)", "setting": "Group 5: Compound (I) 30 mg/kg PO qd, Day 4", "value": "115 ± 9", "unit": "mm^3"},
      {"measurement": "Tumor Volume (Mean ± SEM)", "setting": "Group 5: Compound (I) 30 mg/kg PO qd, Day 6", "value": "120 ± 8", "unit": "mm^3"},
      {"measurement": "Tumor Volume (Mean ± SEM)", "setting": "Group 5: Compound (I) 30 mg/kg PO qd, Day 11", "value": "102 ± 12", "unit": "mm^3"},
      {"measurement": "Tumor Volume (Mean ± SEM)", "setting": "Group 5: Compound (I) 30 mg/kg PO qd, Day 14", "value": "137 ± 24", "unit": "mm^3"},
      {"measurement": "Tumor Volume (Mean ± SEM)", "setting": "Group 5: Compound (I) 30 mg/kg PO qd, Day 18", "value": "173 ± 23", "unit": "mm^3"},
      {"measurement": "Tumor Volume (Mean ± SEM)", "setting": "Group 5: Compound (I) 30 mg/kg PO qd, Day 21", "value": "181 ± 24", "unit": "mm^3"},
      {"measurement": "Tumor Volume (Mean ± SEM)", "setting": "Group 5: Compound (I) 30 mg/kg PO qd, Day 26", "value": "199 ± 25", "unit": "mm^3"},
      {"measurement": "Tumor Volume (Mean ± SEM)", "setting": "Group 5: Compound (I) 30 mg/kg PO qd, Day 29", "value": "237 ± 30", "unit": "mm^3"},
      {"measurement": "Tumor Volume (Mean ± SEM)", "setting": "Group 5: Compound (I) 30 mg/kg PO qd, Day 32", "value": "245 ± 28", "unit": "mm^3"},
      {"measurement": "Tumor volume at the end of the study", "setting": "compound (I) 30 mg/kg PO QD, fulvestrant 3 mg/dose SC q7d, RAD1901 30 mg/kg PO QD, vehicle 2425 mm^3", "value": 245, "unit": "mm^3"}
    ]},
    {"smiles": "CC(=O)c1c(C)c2cnc(Nc3ccc(N4CCNCC4)cn3)nc2n(C2CCCC2)c1=O", "note": "[Palbociclib, palbociclib]", "values": [
      {"measurement": "Tumor Volume (Mean ± SEM)", "setting": "Group 4: Palbociclib 25 mg/kg PO qd, Day 0", "value": "124 ± 3", "unit": "mm^3"},
      {"measurement": "Tumor Volume (Mean ± SEM)", "setting": "Group 4: Palbociclib 25 mg/kg PO qd, Day 4", "value": "146 ± 11", "unit": "mm^3"},
      {"measurement": "Tumor Volume (Mean ± SEM)", "setting": "Group 4: Palbociclib 25 mg/kg PO qd, Day 6", "value": "200 ± 25", "unit": "mm^3"},
      {"measurement": "Tumor Volume (Mean ± SEM)", "setting": "Group 4: Palbociclib 25 mg/kg PO qd, Day 11", "value": "447 ± 57", "unit": "mm^3"},
      {"measurement": "Tumor Volume (Mean ± SEM)", "setting": "Group 4: Palbociclib 25 mg/kg PO qd, Day 14", "value": "632 ± 65", "unit": "mm^3"},
      {"measurement": "Tumor Volume (Mean ± SEM)", "setting": "Group 4: Palbociclib 25 mg/kg PO qd, Day 18", "value": "914 ± 69", "unit": "mm^3"},
      {"measurement": "Tumor Volume (Mean ± SEM)", "setting": "Group 4: Palbociclib 25 mg/kg PO qd, Day 21", "value": "1161 ± 122", "unit": "mm^3"},
      {"measurement": "Tumor Volume (Mean ± SEM)", "setting": "Group 4: Palbociclib 25 mg/kg PO qd, Day 26", "value": "1551 ± 188", "unit": "mm^3"},
      {"measurement": "Tumor Volume (Mean ± SEM)", "setting": "Group 4: Palbociclib 25 mg/kg PO qd, Day 29", "value": "1667 ± 185", "unit": "mm^3"}
    ]},
    {"smiles": "CCNCCc1ccc(CN(CC)c2cc(OC)ccc2[C@@H]2CCc3cc(O)ccc3C2)cc1", "note": "[RAD1901, elacestrant]", "values": [
      {"measurement": "Tumor Volume (Mean ± SEM)", "setting": "Group 3: RAD1901 30 mg/kg PO qd, Day 0", "value": "124 ± 3", "unit": "mm^3"},
      {"measurement": "Tumor Volume (Mean ± SEM)", "setting": "Group 3: RAD1901 30 mg/kg PO qd, Day 4", "value": "123 ± 10", "unit": "mm^3"},
      {"measurement": "Tumor Volume (Mean ± SEM)", "setting": "Group 3: RAD1901 30 mg/kg PO qd, Day 6", "value": "138 ± 16", "unit": "mm^3"},
      {"measurement": "Tumor Volume (Mean ± SEM)", "setting": "Group 3: RAD1901 30 mg/kg PO qd, Day 11", "value": "199 ± 28", "unit": "mm^3"},
      {"measurement": "Tumor Volume (Mean ± SEM)", "setting": "Group 3: RAD1901 30 mg/kg PO qd, Day 14", "value": "305 ± 45", "unit": "mm^3"},
      {"measurement": "Tumor Volume (Mean ± SEM)", "setting": "Group 3: RAD1901 30 mg/kg PO qd, Day 18", "value": "382 ± 58", "unit": "mm^3"},
      {"measurement": "Tumor Volume (Mean ± SEM)", "setting": "Group 3: RAD1901 30 mg/kg PO qd, Day 21", "value": "482 ± 78", "unit": "mm^3"},
      {"measurement": "Tumor Volume (Mean ± SEM)", "setting": "Group 3: RAD1901 30 mg/kg PO qd, Day 26", "value": "574 ± 76", "unit": "mm^3"},
      {"measurement": "Tumor Volume (Mean ± SEM)", "setting": "Group 3: RAD1901 30 mg/kg PO qd, Day 29", "value": "696 ± 100", "unit": "mm^3"},
      {"measurement": "Tumor Volume (Mean ± SEM)", "setting": "Group 3: RAD1901 30 mg/kg PO qd, Day 32", "value": "801 ± 111", "unit": "mm^3"}
    ]}
  ]
}
